The record followed here is patent US20180273626A1.

The test has as its target IgE-Fc3-4:FcεRIα complex (human) (UniProt P12319). Briefly: SPR.

omalizumab: the Kd came out at 311 pM.
